From publication doi:10.1101/2021.09.23.461563

Amino acid sequences for entries named in this document (tags omitted).
UniProt P02745, whole entry, looked up: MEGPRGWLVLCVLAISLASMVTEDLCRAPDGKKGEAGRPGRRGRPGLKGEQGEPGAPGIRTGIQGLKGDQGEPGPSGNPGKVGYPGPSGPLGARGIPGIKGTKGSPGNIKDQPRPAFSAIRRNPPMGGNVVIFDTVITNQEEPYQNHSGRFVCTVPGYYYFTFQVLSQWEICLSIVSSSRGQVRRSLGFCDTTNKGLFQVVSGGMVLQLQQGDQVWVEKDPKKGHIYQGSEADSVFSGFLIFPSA
human C1 complex (C1qC1r2C1s2), UniProt P02746, whole entry, looked up: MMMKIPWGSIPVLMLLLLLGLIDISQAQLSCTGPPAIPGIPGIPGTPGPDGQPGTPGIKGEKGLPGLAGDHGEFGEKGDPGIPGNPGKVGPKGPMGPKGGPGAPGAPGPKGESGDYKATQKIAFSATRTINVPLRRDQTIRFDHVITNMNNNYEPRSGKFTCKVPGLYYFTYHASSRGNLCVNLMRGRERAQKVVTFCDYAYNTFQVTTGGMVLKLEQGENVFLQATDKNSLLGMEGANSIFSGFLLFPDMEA
human C1 complex (C1qC1r2C1s2), UniProt P02747, whole entry, looked up: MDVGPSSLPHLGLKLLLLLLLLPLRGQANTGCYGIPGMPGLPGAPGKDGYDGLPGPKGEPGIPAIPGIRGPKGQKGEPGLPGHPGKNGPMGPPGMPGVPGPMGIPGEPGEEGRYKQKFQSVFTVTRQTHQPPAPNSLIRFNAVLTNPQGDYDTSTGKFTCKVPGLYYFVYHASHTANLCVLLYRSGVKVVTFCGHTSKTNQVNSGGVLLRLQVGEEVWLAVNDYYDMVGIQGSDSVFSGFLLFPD

Biological target: GST-ErpQ (Borrelia burgdorferi strain B31)
Assay: SPR

Q: How did the Kd turn out when “human C1 complex (C1qC1r2C1s2) (from UniProt P02745 23-245; P02746 28-253; P02747 29-245)” was run?
A: 0.011 µM
